# Tests used:
# By UniProt entry, the sequences of proteins in these tests, tags left out. Where a name states a change or a piece, a line headed by the entry shows the natural chain unless it says otherwise.
# UniProt P23795: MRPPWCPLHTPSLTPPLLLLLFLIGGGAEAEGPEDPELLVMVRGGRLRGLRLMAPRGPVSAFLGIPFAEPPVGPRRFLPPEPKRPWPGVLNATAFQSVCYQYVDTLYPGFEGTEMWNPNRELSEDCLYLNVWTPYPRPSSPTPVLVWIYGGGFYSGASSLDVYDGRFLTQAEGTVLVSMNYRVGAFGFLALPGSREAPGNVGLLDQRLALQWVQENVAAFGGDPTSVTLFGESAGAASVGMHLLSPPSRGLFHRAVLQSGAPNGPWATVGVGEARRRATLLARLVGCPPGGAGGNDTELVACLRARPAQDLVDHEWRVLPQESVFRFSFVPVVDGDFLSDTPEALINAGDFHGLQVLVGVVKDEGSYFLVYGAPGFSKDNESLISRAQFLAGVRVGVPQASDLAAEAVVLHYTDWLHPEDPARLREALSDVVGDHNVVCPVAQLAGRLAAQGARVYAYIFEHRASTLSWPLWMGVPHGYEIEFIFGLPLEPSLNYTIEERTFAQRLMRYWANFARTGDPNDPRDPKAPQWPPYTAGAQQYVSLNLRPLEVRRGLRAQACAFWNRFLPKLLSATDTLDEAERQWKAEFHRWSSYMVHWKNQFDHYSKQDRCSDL
# UniProt P81908: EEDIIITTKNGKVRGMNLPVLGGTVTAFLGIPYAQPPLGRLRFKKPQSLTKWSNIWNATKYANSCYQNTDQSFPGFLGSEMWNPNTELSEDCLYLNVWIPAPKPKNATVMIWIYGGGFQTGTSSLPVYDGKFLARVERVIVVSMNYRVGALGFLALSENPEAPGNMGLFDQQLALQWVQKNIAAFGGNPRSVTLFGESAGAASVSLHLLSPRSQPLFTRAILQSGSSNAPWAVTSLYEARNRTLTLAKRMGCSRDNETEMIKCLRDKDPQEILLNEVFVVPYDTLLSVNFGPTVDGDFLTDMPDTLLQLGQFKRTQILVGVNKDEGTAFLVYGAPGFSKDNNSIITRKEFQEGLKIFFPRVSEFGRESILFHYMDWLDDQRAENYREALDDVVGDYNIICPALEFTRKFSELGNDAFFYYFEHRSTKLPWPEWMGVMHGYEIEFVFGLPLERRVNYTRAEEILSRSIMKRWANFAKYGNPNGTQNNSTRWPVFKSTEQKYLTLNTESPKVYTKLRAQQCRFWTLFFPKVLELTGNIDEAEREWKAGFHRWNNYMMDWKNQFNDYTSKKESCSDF
# mammalian AChE = mammalian AChE (Bos taurus, UniProt P23795); experiment: Sensitivity of soluble and immobilized mammalian AChE to dichlorophos
# immobilized Eq-BChE = immobilized Eq-BChE (Equus caballus, UniProt P81908); experiment: Inhibition of immobilized Eq-BChE with DFP and reactivation with TMB4; conditions: compared with HI-6
substance,measurement,setting,value
dichlorophos,slope for the sponge less than the soluble enzyme,mammalian AChE; 5 minutes exposure,about 20%
same,"EC50 values, immobilized sensor versus soluble enzyme",mammalian AChE; 5 minutes exposure in 50 mM phosphate buffer,very similar EC50 values
"N,N′-trimethylene bis(pyridinium-4-aldoxime) dibromide",reactivation of inhibited Eq-BChE,immobilized Eq-BChE,more efficient reactivator of inhibited Eq-BChE than is HI-6
